From paper PMC11324666, “Two novel in vitro assays to screen chemicals for their capacity to inhibit thyroid hormone transmembrane transporter proteins OATP1C1 and OAT4” (Archives of Toxicology, 2024)

Tests used:
OATP1C1 = molecular target: T1, OATP1C1 (Homo sapiens, UniProt Q9NYB5); experiment: CHO-K1 OATP1C1 TH uptake assay with 125I-T4 tracer; details: 10 nM T4, 30 min; for T4 uptake inhibition BMC20 (M), [CI]: concentration that inhibits 125I-T4 uptake by 20%, brackets = 95% CI
T1 sequence (Q9NYB5 1-712): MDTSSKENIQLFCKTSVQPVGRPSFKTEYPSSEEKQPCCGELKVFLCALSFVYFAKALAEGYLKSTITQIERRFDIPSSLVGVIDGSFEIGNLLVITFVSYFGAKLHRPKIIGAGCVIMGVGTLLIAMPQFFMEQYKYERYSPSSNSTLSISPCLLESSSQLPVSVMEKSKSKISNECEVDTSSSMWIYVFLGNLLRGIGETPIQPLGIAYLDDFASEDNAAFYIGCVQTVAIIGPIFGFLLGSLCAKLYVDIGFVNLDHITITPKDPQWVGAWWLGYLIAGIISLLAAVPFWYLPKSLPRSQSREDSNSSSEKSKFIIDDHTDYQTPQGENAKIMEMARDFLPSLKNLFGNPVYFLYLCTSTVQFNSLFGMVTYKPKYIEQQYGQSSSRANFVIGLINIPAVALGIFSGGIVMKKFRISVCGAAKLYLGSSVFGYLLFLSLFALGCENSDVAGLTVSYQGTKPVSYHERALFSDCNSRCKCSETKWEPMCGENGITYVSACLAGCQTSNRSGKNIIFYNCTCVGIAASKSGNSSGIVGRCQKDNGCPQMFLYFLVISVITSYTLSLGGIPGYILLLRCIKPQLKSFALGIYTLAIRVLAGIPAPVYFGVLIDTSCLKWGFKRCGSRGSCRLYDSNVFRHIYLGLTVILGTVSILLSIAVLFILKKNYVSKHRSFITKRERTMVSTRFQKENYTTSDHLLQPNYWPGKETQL

OAT4 = molecular target: T2, OAT4 (Homo sapiens, UniProt Q9NSA0); experiment: MDCK-OAT4 TH uptake assay with 125I-T4 tracer
T2 sequence (Q9NSA0 1-550): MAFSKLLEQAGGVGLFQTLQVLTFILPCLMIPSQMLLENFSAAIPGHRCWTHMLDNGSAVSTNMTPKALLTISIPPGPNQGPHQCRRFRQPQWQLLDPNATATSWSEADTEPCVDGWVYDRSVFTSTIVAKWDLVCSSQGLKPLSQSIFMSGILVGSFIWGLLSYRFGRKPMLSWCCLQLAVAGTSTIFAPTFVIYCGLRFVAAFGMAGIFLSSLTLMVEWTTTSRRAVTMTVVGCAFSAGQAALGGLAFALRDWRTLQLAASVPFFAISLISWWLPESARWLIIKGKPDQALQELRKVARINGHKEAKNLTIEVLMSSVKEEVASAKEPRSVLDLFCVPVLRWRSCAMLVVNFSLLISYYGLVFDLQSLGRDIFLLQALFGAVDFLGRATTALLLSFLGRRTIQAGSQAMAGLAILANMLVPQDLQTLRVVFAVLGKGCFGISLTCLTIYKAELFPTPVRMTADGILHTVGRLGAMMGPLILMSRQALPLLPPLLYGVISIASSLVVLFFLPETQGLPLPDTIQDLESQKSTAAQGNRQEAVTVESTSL

| Compound | T4 uptake inhibition BMC20 (M), [CI] (OATP1C1) | 125I-T4 uptake compared to the vehicle control (range finding) (OATP1C1; single concentration 10 or 100 µM, below 80% = positive hit) | T4 uptake inhibition BMC20 (M), [CI] (OAT4) | T4 uptake on co-exposure to known inhibitor (OAT4) |
| --- | --- | --- | --- | --- |
| O=S(=O)(c1ccc(O)cc1)c1ccc(O)cc1 [Bisphenol S, Bisphenol-S] | 3.38E−05 [7.87E−06; 1.45E−04] M | below 80% | – | – |
| O=C(O)Cc1ccccc1Nc1c(Cl)cccc1Cl [Diclofenac] | 1.40E−06 [6.84E−07; 2.87E−06] M | – | – | – |
| O=C(O)CSc1nnc(Br)n1-c1ccc(C2CC2)c2ccccc12 [Lesinurad, reference compound] | – | – | 3.23E−06 [2.26E−06; 4.61E−06] M | decreased back to control concentrations |
